Data reported in patent publication US20080255104A1, “Nsaid Compositions” (EQUITECH CORPORATION, priority 2004, published 2008).

Assay: Oral bioavailability of ibuprofen crushed tablets in control and vagal-suppressed (Pain Model) rats
Assay type: in vivo, Sprague-Dawley rats
Details: propantheline-treated (vagal suppression) rats, 20 mg/kg oral
Source text: Delayed absorption caused by vagal suppression that has previously been reported in the literature (e.g., Jamali & Axelson, 1997) was used to test the absorption rates of new meloxicam formulations.
The animal models are adult male Sprague-Dawley rats with body weight of 250-300 g, and which were cared for in accordance with the principles and guidelines of the Canadian Council of Animal Care. All rats were catheterized in the right jugular vein for sample collection.
An animal model having suppressed vagal properties were produced by administering (intraperitoneal injection) to the rats two 20 mg/kg doses of propantheline (test, n=6), an anticholinergic agent with known vagal suppressive properties, the first dose at 2 hours prior to administration of an NSAID, and the second at 1 hour prior.
The tablets were crushed gently and small pieces were administered into the stomach via a plastic tube followed by 0.5 mL tap water. Animals were fasted after the first dose of propantheline until 4 hours post-meloxicam dose. They had free access to water.

- AUC(0-1): 12.2 µg/h/mL
SMILES: CC(C)Cc1ccc(C(C)C(=O)O)cc1 (racemic) [ibuprofen]
